From patent US11324832B2, “Tripartite modulators of endosomal G protein-coupled receptors” (Endosome Therapeutics, Inc., priority 2015, dated 2022)

Protein sequences, listed by entry. Tags and fused reporters are not part of them.
UniProt P14600, whole entry: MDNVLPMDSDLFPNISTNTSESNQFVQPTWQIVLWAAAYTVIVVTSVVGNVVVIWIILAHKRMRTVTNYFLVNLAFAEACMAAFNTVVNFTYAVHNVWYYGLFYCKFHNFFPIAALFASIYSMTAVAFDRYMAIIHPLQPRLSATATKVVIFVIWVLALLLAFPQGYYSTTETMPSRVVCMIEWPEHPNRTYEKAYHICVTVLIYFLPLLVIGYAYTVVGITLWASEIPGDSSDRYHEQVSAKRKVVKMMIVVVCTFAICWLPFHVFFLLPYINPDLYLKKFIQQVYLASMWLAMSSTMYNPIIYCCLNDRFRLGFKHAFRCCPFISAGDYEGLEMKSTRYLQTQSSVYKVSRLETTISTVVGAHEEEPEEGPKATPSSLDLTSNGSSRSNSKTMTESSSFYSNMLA

Columns and labels:
Type in all cases: cell-based
NK1R [1] = target: T1, NK1R (Rattus norvegicus, UniProt P14600); experiment: BRET of NK1R trafficking (KRas-Venus, Rab5a-Venus) in HEK293 cells; parameters: Full length and truncated 6312 rat HA-NK1R have been described; expressed in transfected cells; host or cells: HEK293 (transient); details: agonist alone, SP 1, 10 nM
Source text: (§1) Bioluminescence Resonance Energy Transfer (BRET) was employed to quantitatively assess the proximity of the NK1R to key regulators of GPCR trafficking (βarrs), and resident proteins of plasma (KRas) and early endosomal (Rab5a) membranes in HEK293 cells (FIG. 1A). […] Endocytosis was dynamin- and clathrin-dependent because the dynamin inhibitor Dyngo 4a (Dy4), the clathrin inhibitor PitStop 2 (PS2) and expression of dominant negative dynamin K44E all blocked the decrease in NK1R-RLuc8/KRas-Venus BRET and the increase in NK1R-RLuc8/Rab5a-Venus BRET (FIG. 1E, F).
(§2) HEK293 cells were transfected with the following cDNAs: 1 μg NK1R-RLuc8 or 1 μg CLR-RLuc8+1 μg Myc-RAMP1+4 μg KRas-Venus, 4 μg Rab5a-Venus, 4 μg βarr1-YFP, or 4 μg βarr2-YFP; or 1 μg NK1R+0.5 μg Gαq-RLuc8+1 μg Gβ1+4 μg Gγ2-Venus; or 1 μg NK1R+0.5 μg Gαq-RLuc8+1 μg Gβ1+1 μg Gγ2+4 μg Rab5a-Venus. After 48 h, cells were equilibrated in Hank's balanced salt solution (HBSS) at 37° C., and incubated with the RLuc substrate coelenterazine h (5 μM, 15 min). BRET ratios were determined using a microplate reader LUMIstar Omega (BMG LabTech) before and after challenge with SP (0.1-10 nM) or vehicle (dH2O).

NK1R [2] = target: T1, NK1R; experiment: FRET biosensors of compartmentalized signaling (ERK, PKC, cAMP) in NK1R-expressing HEK293 cells; parameters: Full length and truncated 6312 rat HA-NK1R have been described; expressed in transfected cells; host or cells: HEK293 (transient); details: agonist alone
Source text: To study the link between NK1R trafficking and signaling, the NK1R and Förster Resonance Energy Transfer (FRET) biosensors targeted to detect activated ERK in the cytosol (CytoEKAR) or nucleus (NucEKAR, FIG. 2A), activated PKC at the plasma membrane (pmCKAR) or in the cytosol (CytoCKAR, FIG. 2C), and cAMP at the plasma membrane (pmEpac2) or in the cytosol (CytoEpac2, FIG. 2E) were expressed in HEK293 cells. […] Dynamin WT magnified SP activation of nuclear ERK, whereas dynamin K44E abolished activation of nuclear ERK (FIG. 2G). […] Thus, clathrin- and dynamin-dependent NK1R endocytosis is required for activation of nuclear ERK, which also depends on βarrs and for activation of cytosolic PKC and cAMP.
HEK293 cells were transfected with 55 ng/well rat NK1R with N-terminal HA. 11 epitope tag (HA-NK1R) or CLR plus RAMP1 and 40 ng/well FRET biosensors. FRET was assessed 48 h after transfection, following serum restriction (0.5% FBS overnight). For experiments using clathrin or dynamin siRNA, cells were transfected with 55 ng/well rat HA-NK1R, 40 ng/well FRET biosensor and 25 nM/well scrambled, clathrin or dynamin ON-TARGETplus SMARTpool siRNA (GE Dharmacon). FRET was assessed 72 h after transfection, following serum restriction (0.5% FBS overnight). Cells were equilibrated in HBSS at 37° C. and FRET was analyzed using a GE Healthcare INCell 2000 Analyzer. For GFP/RFP emission ratio analysis, cells were sequentially excited using a FITC filter (490/20) with emission measured using dsRed (605/52) and FITC (525/36) filters, and a polychroic optimized for the FITC/dsRed filter pair (Quad4). For CFP/YFP emission ratio analysis, cells were sequentially excited using a CFP filter (430/24) with emission measured using YFP (535/30) and CFP (470/24) filters, and a polychroic optimized for the CFP/YFP filter pair (Quad3). Cells were imaged every 1 min, allowing image capture of 14 wells per minute. Baseline emission ratio images were captured for 4 min. Cells were challenged with an EC50 concentration of SP (1 nM), GGRP (1 nM) or vehicle, and images were captured for 20 min. Cells were then stimulated with the positive control (200 nM phorbol 12,13-dibutyrate for ERK; 200 nM phorbol 12,13-dibutyrate with phosphatase inhibitor cocktail for PKC; 10 μM forskolin, 100 μM 3-isobutyl-1-methylxanthine, 100 nM PGE1 for cAMP) for 10 min to generate a maximal increase, and positive emission ratio images were captured for 4 min. Data were analyzed as described and expressed as emission ratios relative to baseline for each cell (F/F0). Cells with >10% change in F/F0 after stimulation with positive controls were selected for analysis.

NK1R [3] = target: T1, NK1R; experiment: NK1R endocytosis in rat spinal cord slices; details: SP 1 μM, 5 min
NK1R [4] = target: T1, NK1R; experiment: BRET between NK1R-RLuc8 and βarr1/2-YFP in HEK293 cells; parameters: Full length and truncated 6312 rat HA-NK1R have been described; expressed in transfected cells; host or cells: HEK293 (transient); details: agonist alone
Source text: as §1, §2

In the case of “SP: substance P, NK1R agonist used as stimulus”, the “NK1R endocytosis (NK1R-RLuc8/KRas-Venus and NK1R-RLuc8/Rab5a-Venus BRET)” value (NK1R [1]) is reported as “decreased NK1R-RLuc8/KRas-Venus BRET and concomitantly increased NK1R-RLuc8/Rab5a-Venus BRET”, the “cytosolic PKC activity (FRET CytoCKAR)” value (NK1R [2]; SP 1 nM) is reported as “caused a rapid and sustained increase in cytosolic PKC activity” and the “cytosolic cAMP (FRET CytoEpac2)” value (NK1R [2]; SP 1 nM) is reported as “caused a sustained increase in cytosolic cAMP”. For the same substance, the “plasma membrane PKC activity (FRET pmCKAR)” value (NK1R [2]; SP 1 nM) was “did not affect plasma membrane PKC activity”, the “plasma membrane cAMP (FRET pmEpac2)” value (NK1R [2]; SP 1 nM) was “transiently increased plasma membrane cAMP” and the “cytosolic ERK activation (FRET CytoEKAR)” value (NK1R [2]; imaged over 20 min) was “rapidly and transiently activated cytosolic ERK”. The “nuclear ERK activation (FRET NucEKAR)” value (NK1R [2]; imaged over 20 min) was “caused a delayed and sustained activation of nuclear ERK”, the “NK1R endocytosis in lamina I neurons of spinal cord slices” value (NK1R [3]) was “stimulated NK1R endocytosis” and the “recruitment of βarrs (BRET NK1R-RLuc8 / βarr1-YFP, βarr2-YFP)” value (NK1R [4]) was “stimulated BRET between NK1R-RLuc8 and βarr1-YFP and βarr2-YFP”.
